Columns and labels:
[1] = molecular target: T1, human α3β4 receptors (Homo sapiens, UniProt P30926+P32297); assay: Two-electrode voltage clamp, receptors expressed in Xenopus oocytes; type: cell-based; conditions: no further recovery afterwards
T1 construct: expressed in transfected cells; host or cells: Xenopus laevis oocytes injected with cRNA

By UniProt entry, the sequences of proteins in these tests, tags left out. Residues count along the entry.
UniProt P30926, 22-498: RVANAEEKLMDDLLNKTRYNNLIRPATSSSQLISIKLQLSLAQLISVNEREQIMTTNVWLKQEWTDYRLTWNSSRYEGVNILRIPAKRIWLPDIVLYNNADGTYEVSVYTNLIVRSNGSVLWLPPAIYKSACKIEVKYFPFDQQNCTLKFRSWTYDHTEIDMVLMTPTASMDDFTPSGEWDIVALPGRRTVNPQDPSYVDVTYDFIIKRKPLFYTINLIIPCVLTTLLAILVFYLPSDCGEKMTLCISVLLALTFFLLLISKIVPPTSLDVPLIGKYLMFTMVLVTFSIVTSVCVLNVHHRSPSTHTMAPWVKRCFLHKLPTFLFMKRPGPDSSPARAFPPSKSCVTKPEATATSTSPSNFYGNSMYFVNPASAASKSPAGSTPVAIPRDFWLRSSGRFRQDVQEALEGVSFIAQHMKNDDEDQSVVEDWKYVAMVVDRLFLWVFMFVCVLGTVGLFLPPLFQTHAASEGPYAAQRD
UniProt P32297, 32-505: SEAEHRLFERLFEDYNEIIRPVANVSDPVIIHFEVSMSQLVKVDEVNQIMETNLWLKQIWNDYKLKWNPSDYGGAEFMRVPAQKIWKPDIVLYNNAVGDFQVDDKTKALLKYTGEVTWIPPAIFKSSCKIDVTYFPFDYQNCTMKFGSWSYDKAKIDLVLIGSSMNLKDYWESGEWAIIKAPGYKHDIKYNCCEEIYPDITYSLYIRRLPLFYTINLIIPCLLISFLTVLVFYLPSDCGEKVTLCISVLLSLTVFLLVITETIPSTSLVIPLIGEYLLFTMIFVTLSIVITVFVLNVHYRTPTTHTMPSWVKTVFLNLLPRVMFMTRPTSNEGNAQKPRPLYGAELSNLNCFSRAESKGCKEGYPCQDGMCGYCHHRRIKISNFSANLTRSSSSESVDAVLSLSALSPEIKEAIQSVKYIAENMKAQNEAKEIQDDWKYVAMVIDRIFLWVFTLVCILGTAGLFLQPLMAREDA
UniProt P17787, 26-502: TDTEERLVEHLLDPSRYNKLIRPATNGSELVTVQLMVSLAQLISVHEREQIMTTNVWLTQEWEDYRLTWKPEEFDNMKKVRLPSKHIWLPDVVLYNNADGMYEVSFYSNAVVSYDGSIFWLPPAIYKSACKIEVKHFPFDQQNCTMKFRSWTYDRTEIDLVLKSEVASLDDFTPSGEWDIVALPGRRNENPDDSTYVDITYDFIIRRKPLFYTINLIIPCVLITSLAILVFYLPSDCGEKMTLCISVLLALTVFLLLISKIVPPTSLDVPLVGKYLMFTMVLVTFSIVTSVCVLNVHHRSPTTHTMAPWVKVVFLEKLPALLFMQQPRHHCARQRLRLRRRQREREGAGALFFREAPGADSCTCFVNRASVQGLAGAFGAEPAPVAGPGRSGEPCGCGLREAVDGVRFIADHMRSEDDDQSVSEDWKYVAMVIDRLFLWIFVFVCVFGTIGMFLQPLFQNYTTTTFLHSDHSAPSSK

[2] = molecular target: T2, human α3β2 receptors (Homo sapiens, UniProt P17787+P32297); assay: as above; type: cell-based; conditions: 5 μM
T2 construct: expressed in transfected cells; host or cells: Xenopus laevis oocytes injected with cRNA

CN[C@@]1(C)[C@@H]2CC[C@@H](C2)C1(C)C [exo-S-mecamylamine]
fast phase of recovery, average duration [1]: 19 min | voltage dependence of the off rate [2]: changed significantly

Source: US20020016370A1, “Exo-R-mecamylamine formulation and use in treatment” (priority 1998, published 2002)
